Laboratory results from ChEMBL document CHEMBL1122436, “Structure-activity studies of dermorphin. Synthesis and some pharmacological data of dermorphin and its 1-substituted analogues” (J Med Chem, 1983).

Species on record: Cavia porcellus
Assay: Inhibition of electrically evoked twitches in guinea pig ileum relative to morphine.
Assay type: functional

In the case of CN1CC[C@]23c4c5ccc(O)c4O[C@H]2[C@@H](O)C=C[C@H]3[C@H]1C5 [MORPHINE], the Relative potency is reported as 1.
